Reference: patent publication US10106539B2, “Spiro-indolines for the treatment and prophylaxis of respiratory syncytial virus infection (RSV)” (REVIRAL LIMITED, priority 2014, dated 2018)

Test: Liver microsomal stability, dog
Type: in vitro ADME
Settings: male, Beagle, pH 7.4; dog liver microsomes, 3 μM compound; read-out: Liver Microsomal Stability T1/2, dog
Protocol: Microsomal Incubation: Experimental Procedure
Pooled human liver microsomes (pooled male and female), pooled rat liver microsomes (male Sprague Dawley rats) and pooled dog liver microsomes (male Beagle dog) are purchased from a reputable commercial supplier and stored at −80° C. prior to use.
Microsomes (final protein concentration 0.5 mg/mL), 0.1 M phosphate buffer pH 7.4 and test compound (final substrate concentration 3 μM; final DMSO concentration 0.25%) are pre-incubated at 37° C. prior to the addition of NADPH (final concentration 1 mM) to initiate the reaction. The final incubation volume is 50 μL. A control incubation is included for each compound tested where 0.1 M phosphate buffer pH 7.4 is added instead of NADPH (minus NADPH). Two control compounds are included with each species. All incubations are performed singularly for each test compound.
Compounds are incubated for 0, 5, 15, 30 and 45 min. The control (minus NADPH) is incubated for 45 min only. […] Following protein precipitation, the sample supernatants are combined in cassettes of up to 4 compounds, internal standard is added and samples analysed by LC-MS/MS. From a plot of ln peak area ratio (compound peak area/internal standard peak area) against time, the gradient of the line is determined. Subsequently, half-life and intrinsic clearance are calculated

With `NCc1ccc2c(c1)nc(CN1C(=O)C3(CC3)c3ccc(F)cc31)n2CCCC(F)(F)F` [Example 1, 1′-{[5-(Aminomethyl)-1-(4,4,4-trifluorobutyl)-1H-1,3-benzodiazol-2-yl]methyl}-6′-fluoro-1′,2′-dihydrospiro[cyclopropane-1,3′-indole]-2′-one] the half-life at 3 μM was 8.87 h.
